Results on 1 molecule are retold here after US9034863B2, “Compositions and methods for inhibiting entry of a hepatic virus” (The Board of Trustees of the University of Illinois, priority 2008, dated 2015).

The subject of the test is HCV. The test is described as follows: Chronic HCV infection treated with IFN-β and ezetimibe, weekly RT-qPCR for 8 weeks. Type of test: cell-based, Hepatitis C virus (HCV). The settings on record: 20 U/ml, week 3 to week 8, vs mock treated. As for the experimental part: Similar studies were carried out with IFN-β alone (20 U/ml), or ezetimibe and IFN-β in combination (a combination of either 15 or 30 μM ezetimibe with 20 U/ml IFN-β). Intracellular RNA was collected from triplicate wells weekly for 8 weeks post-treatment and HCV RNA was quantified by RT-qPCR. […] Importantly, however, a synergistic effect was observed when IFN-β was used in combination with ezetimibe at concentrations of 15 or 30 μM. […] It was confirmed that the inhibition observed was not a consequence of treatment-induced cytotoxicity.

B1: IFN-β: Recombinant human IFN-β, a type I interferon (protein, UniProt P01574 22-187, looked up)
Interferon beta: MSYNLLGFLQRSSNFQCQKLLWQLNGRLEYCLKDRMNFDIPEEIKQLQQFQKEDAALTIYEMLQNIFAIFRQDSSSTGWNETIVENLLANVYHQINHLKTVLEEKLEKEDFTRGKLMSSLHLKRYYGRILHYLKAKEYSHCAWTIVRVEILRNFYFINRLTGYLRN
In the case of B1, the “reduction of intracellular HCV RNA levels” value was “approximately 100 fold”.
